The values below come from ChEMBL document CHEMBL5512662, “Illuminating Dark Chemical Matter Using the Cell Painting Assay” (J Med Chem, 2024).

Chains of the proteins cited; added tags and fusions are not shown. Lines headed by an entry give the natural chain unless they say otherwise; changes in a name come on top.
UniProt P56726, whole entry: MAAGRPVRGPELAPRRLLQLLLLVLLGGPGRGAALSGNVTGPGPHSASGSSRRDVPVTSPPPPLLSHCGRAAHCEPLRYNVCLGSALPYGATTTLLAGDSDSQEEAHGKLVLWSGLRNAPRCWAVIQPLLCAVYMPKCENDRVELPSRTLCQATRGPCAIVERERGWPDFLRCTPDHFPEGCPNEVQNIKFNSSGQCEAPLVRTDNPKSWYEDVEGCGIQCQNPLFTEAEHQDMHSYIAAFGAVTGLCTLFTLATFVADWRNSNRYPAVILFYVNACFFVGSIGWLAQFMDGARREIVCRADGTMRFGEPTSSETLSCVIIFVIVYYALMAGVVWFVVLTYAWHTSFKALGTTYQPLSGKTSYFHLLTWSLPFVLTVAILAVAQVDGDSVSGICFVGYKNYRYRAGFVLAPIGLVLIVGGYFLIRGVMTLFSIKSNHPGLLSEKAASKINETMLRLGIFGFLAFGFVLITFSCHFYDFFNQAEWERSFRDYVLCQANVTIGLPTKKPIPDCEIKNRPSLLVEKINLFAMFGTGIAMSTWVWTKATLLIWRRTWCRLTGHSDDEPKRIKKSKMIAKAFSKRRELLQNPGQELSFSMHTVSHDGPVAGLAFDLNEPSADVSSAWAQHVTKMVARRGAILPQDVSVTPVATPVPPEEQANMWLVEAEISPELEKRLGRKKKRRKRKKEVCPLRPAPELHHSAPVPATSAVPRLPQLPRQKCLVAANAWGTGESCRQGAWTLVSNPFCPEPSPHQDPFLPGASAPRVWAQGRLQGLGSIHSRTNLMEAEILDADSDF
UniProt Q9H4B7: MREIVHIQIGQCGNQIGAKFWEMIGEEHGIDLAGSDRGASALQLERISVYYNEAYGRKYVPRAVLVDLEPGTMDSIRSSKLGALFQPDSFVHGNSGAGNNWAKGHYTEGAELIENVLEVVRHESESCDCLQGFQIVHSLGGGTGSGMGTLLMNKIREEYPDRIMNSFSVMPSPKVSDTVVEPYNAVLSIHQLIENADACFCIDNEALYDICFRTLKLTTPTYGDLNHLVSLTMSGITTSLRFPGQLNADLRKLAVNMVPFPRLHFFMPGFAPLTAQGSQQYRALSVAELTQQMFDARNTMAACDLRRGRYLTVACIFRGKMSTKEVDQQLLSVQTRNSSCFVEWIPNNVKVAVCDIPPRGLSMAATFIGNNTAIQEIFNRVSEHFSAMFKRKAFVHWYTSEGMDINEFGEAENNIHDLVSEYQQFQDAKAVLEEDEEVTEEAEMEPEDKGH
UniProt P0DPH7: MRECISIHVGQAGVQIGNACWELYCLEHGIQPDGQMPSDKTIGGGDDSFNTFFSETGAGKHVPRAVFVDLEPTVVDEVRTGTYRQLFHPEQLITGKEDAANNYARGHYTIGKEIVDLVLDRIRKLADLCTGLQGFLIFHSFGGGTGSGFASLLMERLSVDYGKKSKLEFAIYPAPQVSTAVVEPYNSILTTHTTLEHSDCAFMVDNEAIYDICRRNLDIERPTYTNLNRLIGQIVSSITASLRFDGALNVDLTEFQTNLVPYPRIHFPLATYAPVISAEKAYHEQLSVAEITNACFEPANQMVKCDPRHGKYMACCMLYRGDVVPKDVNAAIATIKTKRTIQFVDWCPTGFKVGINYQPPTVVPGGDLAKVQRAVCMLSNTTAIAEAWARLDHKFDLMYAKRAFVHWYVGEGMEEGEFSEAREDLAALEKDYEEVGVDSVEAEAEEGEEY
UniProt P68366: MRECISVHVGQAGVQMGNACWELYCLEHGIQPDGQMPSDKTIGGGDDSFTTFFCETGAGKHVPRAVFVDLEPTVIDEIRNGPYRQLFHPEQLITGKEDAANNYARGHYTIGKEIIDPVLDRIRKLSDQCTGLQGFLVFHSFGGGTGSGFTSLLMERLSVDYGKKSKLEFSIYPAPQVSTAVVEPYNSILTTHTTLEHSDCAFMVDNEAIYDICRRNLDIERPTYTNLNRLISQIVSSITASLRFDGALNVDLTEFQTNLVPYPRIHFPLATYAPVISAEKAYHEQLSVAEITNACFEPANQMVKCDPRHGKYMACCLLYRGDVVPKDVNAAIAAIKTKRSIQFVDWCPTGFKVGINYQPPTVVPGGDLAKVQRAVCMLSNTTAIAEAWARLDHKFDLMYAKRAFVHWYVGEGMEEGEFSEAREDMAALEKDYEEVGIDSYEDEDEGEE
UniProt Q71U36: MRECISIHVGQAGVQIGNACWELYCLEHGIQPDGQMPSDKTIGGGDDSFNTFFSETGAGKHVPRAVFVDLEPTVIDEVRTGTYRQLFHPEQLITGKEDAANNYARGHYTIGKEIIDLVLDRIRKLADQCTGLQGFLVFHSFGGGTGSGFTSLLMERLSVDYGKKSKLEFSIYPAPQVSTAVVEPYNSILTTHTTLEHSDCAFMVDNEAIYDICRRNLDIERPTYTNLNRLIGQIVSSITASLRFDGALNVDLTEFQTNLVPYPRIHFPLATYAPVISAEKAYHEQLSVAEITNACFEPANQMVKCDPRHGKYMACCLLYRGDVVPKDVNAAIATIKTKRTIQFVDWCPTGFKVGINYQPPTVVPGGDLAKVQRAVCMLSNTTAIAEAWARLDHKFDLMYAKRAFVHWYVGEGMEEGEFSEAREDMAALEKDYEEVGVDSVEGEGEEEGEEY
UniProt P04350: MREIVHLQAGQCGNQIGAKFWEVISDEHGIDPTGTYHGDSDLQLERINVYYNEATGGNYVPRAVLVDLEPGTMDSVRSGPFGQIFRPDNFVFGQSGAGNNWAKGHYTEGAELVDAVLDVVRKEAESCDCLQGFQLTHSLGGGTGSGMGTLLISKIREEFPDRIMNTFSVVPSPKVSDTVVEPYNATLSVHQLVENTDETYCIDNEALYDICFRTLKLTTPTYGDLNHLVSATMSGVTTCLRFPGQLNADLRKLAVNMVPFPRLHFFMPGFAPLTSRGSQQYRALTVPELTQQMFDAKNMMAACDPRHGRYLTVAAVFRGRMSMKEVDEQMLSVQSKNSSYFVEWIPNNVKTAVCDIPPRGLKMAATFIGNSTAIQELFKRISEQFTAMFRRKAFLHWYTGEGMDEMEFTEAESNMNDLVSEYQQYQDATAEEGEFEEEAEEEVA
UniProt Q3ZCM7: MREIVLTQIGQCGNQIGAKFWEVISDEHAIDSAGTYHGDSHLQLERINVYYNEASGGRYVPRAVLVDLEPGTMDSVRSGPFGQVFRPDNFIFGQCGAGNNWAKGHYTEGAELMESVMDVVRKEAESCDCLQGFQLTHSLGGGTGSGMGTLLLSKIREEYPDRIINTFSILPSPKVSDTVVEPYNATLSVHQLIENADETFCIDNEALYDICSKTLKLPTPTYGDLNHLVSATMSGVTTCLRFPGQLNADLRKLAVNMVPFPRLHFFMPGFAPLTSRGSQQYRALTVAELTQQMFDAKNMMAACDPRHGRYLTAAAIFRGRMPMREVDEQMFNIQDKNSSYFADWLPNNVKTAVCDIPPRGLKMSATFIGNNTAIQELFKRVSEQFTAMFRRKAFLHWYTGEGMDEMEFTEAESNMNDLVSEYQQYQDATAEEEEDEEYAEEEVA
UniProt P07437: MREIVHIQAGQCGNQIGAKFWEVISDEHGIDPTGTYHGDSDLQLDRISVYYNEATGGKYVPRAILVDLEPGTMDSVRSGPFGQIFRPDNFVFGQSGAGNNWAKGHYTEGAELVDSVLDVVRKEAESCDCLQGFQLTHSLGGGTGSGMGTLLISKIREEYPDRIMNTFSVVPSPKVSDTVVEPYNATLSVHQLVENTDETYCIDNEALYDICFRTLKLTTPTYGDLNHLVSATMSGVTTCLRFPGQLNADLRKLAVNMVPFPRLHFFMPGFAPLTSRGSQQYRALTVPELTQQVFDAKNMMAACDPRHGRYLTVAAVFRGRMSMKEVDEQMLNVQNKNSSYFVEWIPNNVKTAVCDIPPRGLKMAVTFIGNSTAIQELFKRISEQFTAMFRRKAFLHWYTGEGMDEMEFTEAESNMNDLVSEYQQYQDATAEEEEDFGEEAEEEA
UniProt P68363: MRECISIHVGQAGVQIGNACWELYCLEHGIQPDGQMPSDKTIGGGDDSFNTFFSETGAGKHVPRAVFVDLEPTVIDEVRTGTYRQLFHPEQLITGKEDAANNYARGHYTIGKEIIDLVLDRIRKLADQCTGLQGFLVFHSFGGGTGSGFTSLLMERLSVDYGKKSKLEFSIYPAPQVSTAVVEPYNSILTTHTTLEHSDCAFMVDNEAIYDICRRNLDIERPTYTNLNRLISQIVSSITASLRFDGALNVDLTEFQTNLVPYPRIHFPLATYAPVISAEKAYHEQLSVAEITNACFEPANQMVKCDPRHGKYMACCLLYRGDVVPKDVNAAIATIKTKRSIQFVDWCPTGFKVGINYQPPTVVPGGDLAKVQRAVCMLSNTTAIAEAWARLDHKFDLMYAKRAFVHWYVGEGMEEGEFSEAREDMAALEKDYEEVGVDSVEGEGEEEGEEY
UniProt Q9BQE3: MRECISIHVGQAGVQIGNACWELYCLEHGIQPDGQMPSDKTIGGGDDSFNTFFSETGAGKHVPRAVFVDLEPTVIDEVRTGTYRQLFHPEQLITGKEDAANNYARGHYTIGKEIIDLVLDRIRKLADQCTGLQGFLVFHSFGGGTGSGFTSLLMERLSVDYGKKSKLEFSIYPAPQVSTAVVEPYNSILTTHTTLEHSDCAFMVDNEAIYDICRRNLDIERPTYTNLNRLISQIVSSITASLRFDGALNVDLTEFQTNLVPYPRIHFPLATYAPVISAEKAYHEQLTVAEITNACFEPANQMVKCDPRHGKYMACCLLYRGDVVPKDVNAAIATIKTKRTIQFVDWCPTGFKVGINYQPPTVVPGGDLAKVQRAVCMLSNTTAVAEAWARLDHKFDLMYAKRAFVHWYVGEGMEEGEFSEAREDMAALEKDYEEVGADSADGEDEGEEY
UniProt Q13885: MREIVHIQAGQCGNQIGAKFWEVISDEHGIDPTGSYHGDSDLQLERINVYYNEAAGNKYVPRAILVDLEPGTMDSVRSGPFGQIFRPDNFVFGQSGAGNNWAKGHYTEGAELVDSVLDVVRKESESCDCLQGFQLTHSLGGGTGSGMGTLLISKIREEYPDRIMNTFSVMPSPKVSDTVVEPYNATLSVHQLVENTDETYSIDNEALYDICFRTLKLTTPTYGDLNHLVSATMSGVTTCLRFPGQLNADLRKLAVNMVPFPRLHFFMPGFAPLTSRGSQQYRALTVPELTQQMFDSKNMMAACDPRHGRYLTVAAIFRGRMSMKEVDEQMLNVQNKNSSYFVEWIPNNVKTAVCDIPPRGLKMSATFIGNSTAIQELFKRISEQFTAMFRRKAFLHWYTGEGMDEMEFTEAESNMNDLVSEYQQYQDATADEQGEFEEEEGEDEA
UniProt Q9BVA1: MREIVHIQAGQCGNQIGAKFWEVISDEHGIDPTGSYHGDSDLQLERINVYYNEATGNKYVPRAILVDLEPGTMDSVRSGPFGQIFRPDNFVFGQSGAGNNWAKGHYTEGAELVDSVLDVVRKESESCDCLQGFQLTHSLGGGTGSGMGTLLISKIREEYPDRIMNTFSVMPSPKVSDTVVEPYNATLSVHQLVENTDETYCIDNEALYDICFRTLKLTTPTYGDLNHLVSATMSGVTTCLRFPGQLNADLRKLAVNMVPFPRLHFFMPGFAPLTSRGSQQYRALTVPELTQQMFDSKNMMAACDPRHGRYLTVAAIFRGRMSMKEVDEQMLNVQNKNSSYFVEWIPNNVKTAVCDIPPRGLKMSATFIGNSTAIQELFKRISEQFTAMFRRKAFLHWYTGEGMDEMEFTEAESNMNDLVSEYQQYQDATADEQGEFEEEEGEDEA
UniProt Q9BUF5: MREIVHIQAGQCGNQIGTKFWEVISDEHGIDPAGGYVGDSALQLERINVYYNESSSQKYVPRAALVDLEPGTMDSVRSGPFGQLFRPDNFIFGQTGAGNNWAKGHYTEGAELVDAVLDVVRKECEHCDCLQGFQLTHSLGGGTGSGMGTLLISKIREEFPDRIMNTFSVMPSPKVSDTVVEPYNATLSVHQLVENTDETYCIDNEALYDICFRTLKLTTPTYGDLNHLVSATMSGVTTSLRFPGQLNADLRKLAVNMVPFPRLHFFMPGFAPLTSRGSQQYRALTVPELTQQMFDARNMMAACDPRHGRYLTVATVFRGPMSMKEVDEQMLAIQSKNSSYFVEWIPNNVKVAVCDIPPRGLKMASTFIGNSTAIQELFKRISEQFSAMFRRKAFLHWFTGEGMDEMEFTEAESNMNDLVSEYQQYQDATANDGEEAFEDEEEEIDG

In one assay the test system is Shh Light II. In words: Inhibition of purmorphamine-induced osteoblast differentiation in mouse Shh Light II cells assessed as reduction in GLI-mediated gene expression preincubated for 1 hr followed by purmorphamine addition for 48 hrs by luminescence based reporter gene assay. It is filed as functional, cell-based. The note with it: time 49.0 hrs. On the technique in general: Reporter assays use an easily measured gene product as a stand-in for the process of interest.

Assay [1] has as its target Protein smoothened (Mus musculus) (UniProt P56726). In words: Antagonist activity at mouse SMO expressed in HEK293T cells assessed as inhibition of BODIPY-cyclopamine binding incubated for 4 hrs by fluorescence microscopy method. It is filed as functional, cell-based.
The species named for the next assay is Sus scrofa. Put plainly: Inhibition of porcine alpha/beta tubulin polymerization at 20 uM preincubated for 20 mins at room temperature prior to incubation in ice for 20 mins followed by GTP addition and measured after 60 mins. The note with it: time 100.0 min.
The test system of assay [2] is U2OS. Put plainly: Induction of cell cycle arrest in human U2OS cells assessed as accumulation of 4N-DNA content at 30 uM incubated for 22 hrs followed by EdU plus addition for 2 hrs. It is filed as functional, cell-based. The note with it: time 24.0 hrs.
Assay [3] has as its system U2OS. In words: Induction of cell cycle arrest in human U2OS cells assessed as S-phase arrest by measuring 2N-4N DNA content at 30 uM incubated for 22 hrs followed by EdU plus addition for 2 hrs. In kind it is functional, cell-based. The note with it: time 24.0 hrs.
For the next assay, the target named is Tubulin (Homo sapiens) (UniProt P68371+Q9H4B7+P0DPH7+P68366+Q13509+Q71U36+P04350+Q3ZCM7+P07437+P68363+Q9BQE3+Q6PEY2+Q13885+Q9BVA1+Q9BUF5). Put plainly: Induction of microtubule depolymerization in human U2OS cells at 10 to 30 uM incubated for 24 hrs. In kind it is cell-based. The note with it: dose 10-30 µM.
Assay [4] has as its system U2OS. Put plainly: Induction of mitotic cell numbers in human U2OS cells at 10 uM incubated for 24 hrs by immunocytochemistry analysis. It is filed as functional, cell-based.

The source made the active and inactive calls. The rule behind the calls is not given here.

`COc1ccc(-c2cc(C(F)F)n3ncc(C(=O)N4CCN(c5cccc(Cl)c5)CC4)c3n2)cc1`: the inhibition result in the assay on Shh Light II is “Dose-Dependent Effect”.
Same read-out and setting: the same measure for `COc1ccccc1NC(=O)CCc1c(C)nc2c(-c3ccc(F)cc3)c(C)nn2c1C`: “Dose-Dependent Effect”.
For `COc1ccccc1CCNC(=O)CCCn1nc(C)c2c(C)n(-c3ccc(C)cc3)nc2c1=O`, the outcome in assay [1] (filed as antagonist) was Active. Moreover, the inhibition entry in the assay with Shh Light II was “Dose-Dependent Effect”.
`CCc1cc(C(=O)N/N=C/c2ccc(OC)cc2)c2ccccc2n1`: the inhibition entry in the assay listed under Sus scrofa is “Active”.
As for `CCOc1ccc(Oc2nc(Nc3ccc(C)cc3)nc(N(C)C)n2)nn1`, in assay [1], the outcome was inactive.
Regarding `COCCNC(=O)C1CCN(C(=O)c2cc3sccc3n2Cc2ccc(F)cc2)CC1`, in assay [1] (filed as antagonist), the result was Active. Also, in the assay on Shh Light II, the inhibition result was “Dose-Dependent Effect”.
On to `COc1ccc(CNC(=O)c2cc3cc(OC)ccc3oc2=O)cc1`, for which the inhibition entry in the assay filed under Sus scrofa is “Active”.
As for `COc1ccc(C)cc1S(=O)(=O)n1cnc2ccccc21`, the inhibition result in the assay filed under Sus scrofa is “Active”.
`Nc1ncnc2c1ncn2[C@@H]1O[C@H](CO)[C@@H](O)[C@@H]1O`: the outcome in the assay with U2OS [2] was Active.
Consider `Cc1ccc(N2CC(C(=O)N3CCC(C(=O)Nc4cccc(Br)c4)CC3)CC2=O)cc1` (centres undefined), for which the inhibition result in the assay on Shh Light II was “Dose-Dependent Effect”.
Take `COc1ccc(O)c(/C=N/NC(=O)CCC(=O)Nc2cccc(C)c2)c1`: in the assay on U2OS [3], the result was Active.
In the case of `CN(CCCNC(=O)c1nn(C)c2c1CS(=O)(=O)c1ccccc1-2)Cc1ccccc1`, in assay [1] (filed as antagonist), the outcome was Active. Further, the inhibition result in the assay with Shh Light II is “Dose-Dependent Effect”.
With `COc1cc(Nc2nc3ccc(Cl)cc3n3cnnc23)cc(OC)c1OC`, the inhibition entry with Shh Light II was “Dose-Dependent Effect”.
Take `COc1cc(/C=C2/SC(=S)N(Cc3ccccc3)C2=O)ccc1OS(C)(=O)=O`: the Activity at Tubulin (Homo sapiens) was 100%. The inhibition result in the assay listed under Sus scrofa is “inactive”. Moreover, the result in the assay with U2OS [4] was Active.
